From US9451765B2, “Biological decontamination gel and method for decontaminating surfaces by using this gel” (dated 2016)

Columns and labels:
[1] = test system: spores of Bacillus thuringiensis; conditions: nitric acid (0.5M HNO3 tested in Example 1)
[2] = test system: spores of Bacillus thuringiensis; conditions: 0.5M, 1M, 5M; contact times 1 to 5 hours; FIG. 5

Row | Compound | destruction, inactivation of spores [1] | rates for inhibiting spores on increase in the concentration of biocidal agent [2]
1 | O=[N+]([O-])O | ensured the destruction, the inactivation of spores | –
2 | potassium hydroxide | – | considerably increasing the rates for inhibiting biological species
3 | sodium hydroxide | – | considerably increasing the rates for inhibiting biological species
